Assay results as given in patent US7064204B2, “Pharmaceutically active compounds having a tricyclic pyrazolotriazolopyrimidine ring structure and methods of use” (King Pharmacueticals Reserch and Development, Inc., priority 2002, dated 2006).

By UniProt entry, the sequences of proteins in these tests, tags left out.
UniProt P30542, whole entry: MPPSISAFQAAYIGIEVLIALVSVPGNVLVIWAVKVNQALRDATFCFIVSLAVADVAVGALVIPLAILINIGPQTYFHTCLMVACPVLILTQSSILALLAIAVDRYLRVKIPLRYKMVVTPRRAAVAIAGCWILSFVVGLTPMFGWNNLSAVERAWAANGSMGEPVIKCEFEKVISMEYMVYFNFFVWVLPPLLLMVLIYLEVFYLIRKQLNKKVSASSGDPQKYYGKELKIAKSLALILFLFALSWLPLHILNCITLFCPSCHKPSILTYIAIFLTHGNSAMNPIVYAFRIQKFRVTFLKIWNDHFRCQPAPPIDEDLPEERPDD

What was measured:
[1] = target: T1, human A2A adenosine receptors (Homo sapiens, UniProt P29274); test: Displacement of [3H]SCH58261 binding at human A2A adenosine receptors expressed in CHO cells
T1 construct: expressed in transfected cells; host or cells: CHO cells

[2] = target: T2, human A1 adenosine receptors (Homo sapiens, UniProt P30542); test: Displacement of [3H]DPCPX binding at human A1 adenosine receptors expressed in CHO cells; conditions: Table 2, footnote b: [3H]DPCPX
T2 construct: expressed in transfected cells; host or cells: CHO cells

| SMILES | Ki ([1]; Table 3: [3H]SCH58261, human A2A) [nM] | Ki [2] [nM] | Ki ([1]; Table 2, footnote b: [3H]SCH58261, human A2A) [nM] |
| --- | --- | --- | --- |
| CCNc1c2c(nc(N)n3nc(-c4ccco4)nc23)nn1C [Compound 53, N9-Ethyl-2-furan-2-yl-8-methyl-8H-pyrazolo[4,3-e][1,2,4]triazolo[1,5-c]pyrimidine-5,9-diamine hydrochloride salt] | 10 |  |  |
| Nc1nc2c(cnn2CCc2ccccc2)c2nc(-c3ccc(Cl)cc3)nn12 [Compound 5b, 2-(4-Chloro-phenyl)-7-phenethyl-7H-pyrazolo[4,3-e][1,2,4]triazolo[1,5-c]pyrimidin-5-ylamine] |  | > 1000 | > 1000 |

Structures can show the parent of a compound that is named as a salt.
